PMC3285104

Chains of the proteins cited; added tags and fusions are not shown. Residues count along the entry.
UniProt P62871, whole entry, chain 1 of 2: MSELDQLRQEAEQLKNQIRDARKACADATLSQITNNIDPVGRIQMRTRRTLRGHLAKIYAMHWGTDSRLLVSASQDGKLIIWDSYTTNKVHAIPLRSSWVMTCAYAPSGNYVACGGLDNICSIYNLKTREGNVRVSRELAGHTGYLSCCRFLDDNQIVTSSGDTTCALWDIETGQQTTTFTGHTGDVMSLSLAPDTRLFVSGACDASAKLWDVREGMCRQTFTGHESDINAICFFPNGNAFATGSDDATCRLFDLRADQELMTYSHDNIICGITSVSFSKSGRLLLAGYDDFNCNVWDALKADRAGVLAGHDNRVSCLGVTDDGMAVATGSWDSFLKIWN
UniProt P60880, whole entry: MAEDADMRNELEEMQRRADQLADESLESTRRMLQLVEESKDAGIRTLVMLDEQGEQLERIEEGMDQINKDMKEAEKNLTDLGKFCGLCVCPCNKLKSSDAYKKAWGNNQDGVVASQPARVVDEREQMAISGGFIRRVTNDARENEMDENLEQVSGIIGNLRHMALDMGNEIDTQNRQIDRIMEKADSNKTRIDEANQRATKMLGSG
binary t-SNARE complex (SNAP25 with the H3 domain of syntaxin 1A), UniProt P32851, 191-265: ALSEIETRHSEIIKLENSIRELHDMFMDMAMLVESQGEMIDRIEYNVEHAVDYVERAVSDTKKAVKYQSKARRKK

Molecular target: Gβ1γ1 (bovine (endogenous in retina)) (UniProt P62871)
Test: resonant waveguide grating biosensor

Substance: binary t-SNARE complex (SNAP25 with the H3 domain of syntaxin 1A) (from UniProt P60880 1-206; P32851 191-265)
- waveshift (2 μM t-SNARE, without compound): 265 pm
